This note sets out measurements from US9738720B2, “Monoclonal antibodies against HER2 epitope and methods of use thereof” (Mersana Therapeutics, Inc., priority 2014, dated 2017).

The subject of test [1] is SKBR3 cells. Nature of the test: Internalization rate with anti-HER2 antibody combination. Format: cell-based. As for the experimental part: For the assay, 40,000 SKBR3 cells were plated in DMEM media containing 10% FBS, in each well of three 96 well plates (black colored plates with clear bottomed wells) and allowed to attach overnight at 37° in 5% CO2. The next day the cells were treated with antibodies as follows. […] The unbound antibody was removed by washing the cells two times with ice cold media. For detection, 5 μg/ml of an Alexa 647 labelled anti-human IgG Fab fragment was added to each well in ice cold media and incubated on ice for 1 hr. The unbound secondary antibody was removed by washing each well 2 times with ice cold media. […] Each treatment was carried out in triplicate. One set of wells were treated with the Alexa 647 labelled anti-human IgG monovalent Fab fragment alone, and the fluorescence measured in these wells was used to subtract background fluorescence.
One plate was left on ice to determine the time 0 values for each treatment, and the other plates were incubated at 37° C. After 1.5 hours, one plate from 37° C., and the time 0 plate, were washed 2 times with ice cold PBS and scanned using the 680 nm channel of a Licor Odyssey scanner. The fluorescence measured in each well is used as the total fluorescence for each treatment. The cells were then acid washed 2 times with 100 mM glycine, 50 mM KCl, and 20 mM […], pH2.2, then washed two times with ice cold PBS to remove the surface bound antibodies. The plates were scanned again to determine the amount of internalized fluorescence in each well. The 24 hour plates were analyzed the same way the next day.

The subject of test [2] is MDA-MB-361 cells. Briefly: Cytotoxicity assay (CellTiter-Glo), MDA-MB-361. Format: cell-based, human. The note with it: 72 hours or 6 days. As for the experimental part: (§1) HER2-(EG2-MI-(10 kDa PHF-BA-(AF-HPA-Ala))) conjugates were evaluated for their antiproliferation properties in tumor cell lines in vitro using Cell Titer-Glo (Promega Corp). JIMT-1(HER2 medium expressing cells, DSMZ, Braunschweig, Germany, Cat.# ACC589), MDA-MB-361 (HER2 medium expressing human breast cancer cells, ATCC, Cat.# HTB-27), MDA-MB-453 cells (triple negative breast cancer cell line, ATCC, Cat.# HTB-131), were cultured in DMEM media (ATCC, Manassas, Va., Cat.#30-2002) with 10% FBS (Gibco®, Life Technologies, Grand Island, N.Y., Cat.#16140-071). NCI-H522 (non-small cell lung carcinoma cell line, not amplified, ATCC, Cat.# CRL-5810), and NCI-H2170 (non-small cell lung carcinoma cell line, ATCC, Cat.# CRL-5928) cells were cultured in RPMI-1640 medium (ATCC, Cat.#30-2001). […]
(§2) For the cytotoxicity assay, cells were seeded at a density of 3000 cells per well in 96 well plates and allowed to attach during overnight incubation at 37° C. in the presence of 5% CO2. […] Cell survival was measured using CellTiter-Glo® Luminescent Cell Viability Assay (Promega, Madison, Wis.) as described in the kit instructions. Cell viability was normalized to untreated control and expressed as a percentage. The values were plotted and IC50 values calculated with Graphpad Prism software (San Diego, Calif.) using 4 parameter, variable slope, dose response curve fitting algorithm.
For orientation: Cellular ATP, detected with luciferase, serves as a proxy for viable cell number.

Test [3] relates to MDA-MB-175VII cells. Nature of the test: Cytotoxicity assay (CellTiter-Glo), MDA-MB-175VII. Format: cell-based, human. The note with it: 72 hours or 6 days. As for the experimental part: (§3) HER2-(EG2-MI-(10 kDa PHF-BA-(AF-HPA-Ala))) conjugates were evaluated for their antiproliferation properties in tumor cell lines in vitro using Cell Titer-Glo (Promega Corp). JIMT-1(HER2 medium expressing cells, DSMZ, Braunschweig, Germany, Cat.# ACC589), MDA-MB-361 (HER2 medium expressing human breast cancer cells, ATCC, Cat.# HTB-27), MDA-MB-453 cells (triple negative breast cancer cell line, ATCC, Cat.# HTB-131), were cultured in DMEM media (ATCC, Manassas, Va., Cat.#30-2002) with 10% FBS (Gibco®, Life Technologies, Grand Island, N.Y., Cat.#16140-071). NCI-H522 (non-small cell lung carcinoma cell line, not amplified, ATCC, Cat.# CRL-5810), and NCI-H2170 (non-small cell lung carcinoma cell line, ATCC, Cat.# CRL-5928) cells were cultured in RPMI-1640 medium (ATCC, Cat.#30-2001). NCI-H1581 (non-small cell lung carcinoma medium expressing cell line, not amplified, ATCC, Cat.# CRL-5878) cells were cultured in DMEM:F12 medium (ATCC, Cat.#30-2006). SNU5 (gastric carcinoma cell line, not amplified, ATCC, Cat.# CRL-5973) was cultured in Iscove's Modified Dulbecco's Medium (Invitrogen Life Technologies, Cat.#12440053) with 20% FBS. OVCAR3 (ovarian adenocarcinoma cell line, not amplified, ATCC, Cat.# HTB-161) was cultured in RPMI medium with 20% FBS. […] CAMA-1 (human breast cancer cell line, not amplified, ATCC, Cat.# HTB-21), was cultured in 90% ATCC-formulated Eagle's Minimum Essential Medium. ZR75-1 (human breast cancer cell line, not amplified, ATCC, Cat.# CRL-1500), was cultured in RPMI-1640 Medium. […]
as §2

The subject of test [4] is CAMA-1 cells. Briefly: Cytotoxicity assay (CellTiter-Glo), CAMA-1. Type of test: cell-based, human. The note with it: 72 hours or 6 days. As for the experimental part: as §3, §2
The subject of test [5] is HCC1187 cells. Briefly: Cytotoxicity assay (CellTiter-Glo), HCC1187. Format: cell-based, human. The note with it: 72 hours or 6 days. As to the method: as §3, §2
Test [6] relates to HCC70 cells. Nature of the test: Cytotoxicity assay (CellTiter-Glo), HCC70. Type of test: cell-based, human. The note with it: 72 hours or 6 days. As to the method:
as §1, §2

In test [7] the test system is MDA-MB-231 cells. Briefly: Cytotoxicity assay (CellTiter-Glo), MDA-MB-231. The note with it: 72 hours or 6 days. Type of test: cell-based, human. As to the method: as §1, §2
In test [8] the test system is NCI-H460 cells. Nature of the test: Cytotoxicity assay (CellTiter-Glo), NCI-H460. Type of test: cell-based, human. The note with it: 72 hours or 6 days. As to the method: as §1, §2
Test [9] relates to OVCAR3 cells. Nature of the test: Cytotoxicity assay (CellTiter-Glo), OVCAR3. Type of test: cell-based. The note with it: 72 hours or 6 days. As for the experimental part: as §1, §2
The test system of test [10] is SKOV3 cells. Nature of the test: Cytotoxicity assay (CellTiter-Glo), SKOV3. Format: cell-based, human. The note with it: 72 hours or 6 days. As to the method:
as §1, §2

The subject of test [11] is TOV-21G cells. Nature of the test: TOV-21G mouse tumor xenograft model. The note with it: FIG. 14; Example 16E 5 mg/kg or 2 mg/kg; Kadcyla 10 mg/kg; IV single dose. Type of test: in vivo. As for the experimental part:
Tumor growth inhibition (% TGI) was defined as the percent difference in median tumor volumes (MTVs) between treated and control groups.
Treatment efficacy was determined from the incidence and magnitude of regression responses of the tumor size observed during the study. […] In a PR response, the tumor volume was 50% or less of its Day 1 volume for three consecutive measurements during the course of the study, and equal to or greater than 13.5 mm^3 for one or more of these three measurements. In a CR response, the tumor volume was less than 13.5 mm3 for three consecutive measurements during the course of the study. An animal with a CR response at the termination of a study was additionally classified as a tumor-free survivor (TFS). Animals were monitored for regression responses.
Female NCr nu/nu were inoculated subcutaneously with TOV-21G cells (n=10 for each group). Test compounds or vehicle were dosed IV as a single dose on day 1 or as indicated. Tumor size was measured at the times indicated in FIGS. 8 to 18 using digital calipers. Tumor volume was calculated and was used to determine the delay in tumor growth. Mice were sacrificed when tumors reached a size of 800 to 1500 mm^3. Tumor volumes are reported as the mean±SEM for each group.

In test [12] the test system is H522 cells. Nature of the test: H522 mouse tumor xenograft model. The note with it: FIG. 15; Example 16E 5 mg/kg; Example 17B 5 mg/kg; Kadcyla 10 mg/kg; IV single dose. Type of test: in vivo.
The test system of test [13] is SKOV3 cells. Briefly: SKOV3 mouse tumor xenograft model. Format: in vivo. The note with it: FIG. 16; Kadcyla 10 mg/kg; Example 17B 5 mg/kg; IV single dose.
The test system of test [14] is low HER2-expressing breast and gastric cancer models. Briefly: Low HER2-expressing breast and gastric cancer models. Format: in vivo. The note with it: conjugate single doses of 1 mg/kg or […]; Kadcyla at doses of 10 mg/kg and above.
Test [15] has as its target T1, recombinant human HER2 extracellular domain (Homo sapiens, UniProt P04626).
T1 construct: either human derived (amino acids 23-652, Acro Biosystems Cat.# HE2-H5225); purchased Acro Biosystems HE2-H5225
Nature of the test: Antibody affinity by ELISA, human HER2. Type of test: binding. The note with it: Table IIA. Background: An ELISA detects its analyte on a solid surface through an enzyme-linked reagent.

Test [16] addresses recombinant cynomolgus monkey HER2 extracellular domain. Briefly: Antibody affinity by ELISA, cynomolgus monkey HER2. Type of test: binding. The note with it: Table IIA.
Test [17] deals with JIMT-1 cells. Nature of the test: Cytotoxicity assay (CellTiter-Glo), JIMT-1. The note with it: 72 hours or 6 days. Type of test: cell-based.
Test [18] deals with MDA-MB-453 cells. Nature of the test: Cytotoxicity assay (CellTiter-Glo), MDA-MB-453. Type of test: cell-based. The note with it: 72 hours or 6 days.
For test [19], the system named is NCI-H522 cells. Nature of the test: Cytotoxicity assay (CellTiter-Glo), NCI-H522. Type of test: cell-based. The note with it: 72 hours or 6 days.
Test [20] deals with NCI-H1581 cells. Briefly: Cytotoxicity assay (CellTiter-Glo), NCI-H1581. Format: cell-based. The note with it: 72 hours or 6 days.
For test [21], the system named is BT474 cells. Nature of the test: Cytotoxicity assay (CellTiter-Glo), BT474. Type of test: cell-based, human. The note with it: 72 hours or 6 days.
The test system of test [22] is NCI-N87 cells. Nature of the test: Cytotoxicity assay (CellTiter-Glo), NCI-N87. The note with it: 72 hours or 6 days. Format: cell-based.
For test [23], the system named is NCI-H2122 cells. Nature of the test: Cytotoxicity assay (CellTiter-Glo), NCI-H2122. Format: cell-based, human. The note with it: 72 hours or 6 days. As for the experimental part: as §1, §2

Where “and” joins values, the source holds several entries; their conditions need not be identical. Identical values can stand only once.

The IC50 is the concentration that inhibits the measured activity by half. One may read the Kd as the free concentration of one partner at which half of the binding sites on the other are occupied at equilibrium, for simple one-to-one binding.

As for “Trastuzumab: recombinant, humanized monoclonal antibody directed against domain IV of the HER2 protein [reference compound]”, the Percent internalized in test [1] (antibody alone) is 13%; in test [1] (trastuzumab + pertuzumab) it was “about 30%”; in test [1] (trastuzumab + pertuzumab, listed as Trast.), 28%.

“Kadcyla: antibody-drug conjugate of trastuzumab linked to the cytotoxic agent mertansine (DM1) [reference compound]”: the IC50 in test [2] was 0.27 nM and 0.33 nM; in test [3], 1.2 nM; in [4], 7.8 nM; in test [5], 30 nM; in test [6], 83.4 nM; in test [7], 27 nM. Further, the half-maximal inhibitory concentration (IC50) was 68 nM in test [8], approximately 85 nM in test [9] and 5.6 nM in [10]. The tumor response result in [11] is “did not attain the threshold for therapeutic activity”; in test [12], “did not attain the threshold for therapeutic activity”; in test [13] it was “did not attain the threshold for therapeutic activity”; in test [14], “inactive”.

For the substance “XMT 1519-(EG2-MI-(10 kDa PHF-BA-(AF-HPA-Ala))) [Example 16H]”, the dissociation constant Kd in test [15] and in test [16] was 0.05 nM each time.

Turning to “XMT 1519-(EG2-MI-(10 kDa PHF-BA-(AF-HPA-Ala))) [Example 16D]”, the IC50 was 0.6 nM in [17]; 0.04 nM in [18]; 0.02 nM in test [2]; 0.8 nM in [19]; 5.6 nM in test [20]; 0.6 nM in test [10]. For the same substance, the 50% inhibitory concentration (IC50) in test [21] and in test [22] was 0.03 nM each time.

“Example 16B: Trastuzumab-(EG2-MI-(10 kDa PHF-BA-(AF-HPA-Ala))) conjugate, DAR about 16:1 to about 21:1”: the IC50 in test [3] is 0.1 nM; in test [4], 0.02 nM; in test [5], 0.8 nM; in test [23] it was 0.5 nM.
